Amino acid sequences for entries named in this document (tags omitted).
UniProt P61073, whole entry: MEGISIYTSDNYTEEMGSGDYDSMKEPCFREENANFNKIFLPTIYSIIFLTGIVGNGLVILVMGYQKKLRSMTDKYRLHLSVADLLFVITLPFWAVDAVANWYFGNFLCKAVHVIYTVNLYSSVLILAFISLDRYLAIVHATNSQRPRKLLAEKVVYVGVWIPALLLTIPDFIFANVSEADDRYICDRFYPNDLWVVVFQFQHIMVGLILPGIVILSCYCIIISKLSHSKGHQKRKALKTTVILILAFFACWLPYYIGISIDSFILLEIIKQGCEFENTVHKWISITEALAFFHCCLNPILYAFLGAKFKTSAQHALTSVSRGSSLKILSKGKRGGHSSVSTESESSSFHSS

According to ChEMBL document CHEMBL5260798, “Structural Analysis of Chemokine Receptor-Ligand Interactions” (J Med Chem, 2017):

Experiments:
[1] = molecular target: T1, C-X-C chemokine receptor type 3 (Homo sapiens, UniProt P49682); experiment: Inhibition of human wild type CXCR3
T1 sequence (P49682 whole entry): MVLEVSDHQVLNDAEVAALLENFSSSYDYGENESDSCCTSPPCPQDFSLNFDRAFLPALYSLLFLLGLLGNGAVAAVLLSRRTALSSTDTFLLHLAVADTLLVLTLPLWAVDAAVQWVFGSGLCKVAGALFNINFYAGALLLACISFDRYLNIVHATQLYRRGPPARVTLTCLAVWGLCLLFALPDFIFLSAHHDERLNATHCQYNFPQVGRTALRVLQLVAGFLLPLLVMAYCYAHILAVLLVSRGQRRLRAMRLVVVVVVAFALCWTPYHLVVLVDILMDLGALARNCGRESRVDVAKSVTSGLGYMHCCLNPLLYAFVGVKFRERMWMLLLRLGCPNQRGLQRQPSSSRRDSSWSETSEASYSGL

[2] = molecular target: C-X-C chemokine receptor type 4 (Homo sapiens, UniProt P61073); experiment: Binding affinity to CXCR4 (unknown origin) assessed as inhibition constant

IC50 [1] [nM] | Ki [2] [nM] | Compound
251 | – | CCOc1ccc(-n2c(C(C)N(Cc3cccnc3)C(=O)Cc3ccc(OC(F)(F)F)cc3)nc3ncccc3c2=O)cc1 (configuration not stated)
– | 23 | NCCCCN(Cc1nc2ccccc2[nH]1)[C@H]1CCCc2cccnc21 [MAVORIXAFOR]
